Experimental findings from patent US9764004B2 (Eli Lilly and Company, priority 2015, dated 2017) are described below.

By UniProt entry, the sequences of proteins in these tests, tags left out. Residues count along the entry.
UniProt Q61606, 27-485: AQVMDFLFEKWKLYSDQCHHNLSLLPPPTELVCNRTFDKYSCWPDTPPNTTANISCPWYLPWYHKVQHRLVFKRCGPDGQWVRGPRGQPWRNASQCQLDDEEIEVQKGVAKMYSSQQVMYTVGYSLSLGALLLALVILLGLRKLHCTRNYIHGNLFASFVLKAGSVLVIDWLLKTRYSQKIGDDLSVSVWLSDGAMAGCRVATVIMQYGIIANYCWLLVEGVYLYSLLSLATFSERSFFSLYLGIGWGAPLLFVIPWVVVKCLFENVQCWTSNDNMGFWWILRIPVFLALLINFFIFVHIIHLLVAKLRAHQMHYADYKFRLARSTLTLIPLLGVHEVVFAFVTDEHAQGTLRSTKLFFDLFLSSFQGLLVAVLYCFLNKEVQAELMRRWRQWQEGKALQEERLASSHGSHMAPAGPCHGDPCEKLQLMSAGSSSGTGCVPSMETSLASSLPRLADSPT
UniProt P47871, 26-477: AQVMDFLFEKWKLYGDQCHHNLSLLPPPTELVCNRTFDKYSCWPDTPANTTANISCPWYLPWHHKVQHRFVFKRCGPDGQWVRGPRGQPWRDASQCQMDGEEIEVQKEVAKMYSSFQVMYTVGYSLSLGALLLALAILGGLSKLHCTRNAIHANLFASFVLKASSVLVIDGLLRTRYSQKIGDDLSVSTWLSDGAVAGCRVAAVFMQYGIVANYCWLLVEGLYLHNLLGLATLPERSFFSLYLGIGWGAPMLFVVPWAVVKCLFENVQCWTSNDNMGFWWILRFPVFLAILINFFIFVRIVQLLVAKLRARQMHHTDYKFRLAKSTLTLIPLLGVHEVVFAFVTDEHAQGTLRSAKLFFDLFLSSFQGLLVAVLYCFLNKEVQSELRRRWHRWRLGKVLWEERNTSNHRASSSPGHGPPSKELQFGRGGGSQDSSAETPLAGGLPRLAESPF
UniProt P43220, 24-463: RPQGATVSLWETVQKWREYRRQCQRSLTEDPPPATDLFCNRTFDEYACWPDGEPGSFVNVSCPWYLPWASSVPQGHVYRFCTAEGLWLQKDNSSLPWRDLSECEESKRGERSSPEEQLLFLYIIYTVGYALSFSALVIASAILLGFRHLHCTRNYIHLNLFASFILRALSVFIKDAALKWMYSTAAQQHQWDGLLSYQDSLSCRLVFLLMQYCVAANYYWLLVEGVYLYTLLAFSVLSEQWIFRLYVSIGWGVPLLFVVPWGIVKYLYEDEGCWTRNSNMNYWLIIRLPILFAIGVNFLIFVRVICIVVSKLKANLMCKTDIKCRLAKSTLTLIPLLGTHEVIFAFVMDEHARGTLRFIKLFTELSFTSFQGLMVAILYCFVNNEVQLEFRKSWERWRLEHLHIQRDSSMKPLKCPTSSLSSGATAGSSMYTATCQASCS
UniProt P30082, 27-485: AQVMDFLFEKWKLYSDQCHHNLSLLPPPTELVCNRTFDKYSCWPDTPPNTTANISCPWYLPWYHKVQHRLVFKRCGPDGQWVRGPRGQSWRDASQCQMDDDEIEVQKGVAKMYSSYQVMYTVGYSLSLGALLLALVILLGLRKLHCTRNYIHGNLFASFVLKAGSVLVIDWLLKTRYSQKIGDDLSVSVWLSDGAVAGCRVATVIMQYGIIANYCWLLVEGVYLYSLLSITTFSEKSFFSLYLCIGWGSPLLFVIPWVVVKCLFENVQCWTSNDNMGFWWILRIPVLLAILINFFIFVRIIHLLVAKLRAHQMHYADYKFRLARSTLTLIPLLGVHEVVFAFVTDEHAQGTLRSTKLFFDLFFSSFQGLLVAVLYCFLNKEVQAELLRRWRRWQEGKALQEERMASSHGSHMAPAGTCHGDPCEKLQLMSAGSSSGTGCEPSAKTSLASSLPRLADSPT

The target of data set [1] is T1, mouse glucagon receptor (mGcg-R) (Mus musculus, UniProt Q61606).
T1 construct: expressed in transfected cells; crude plasma membranes
Briefly: Radioligand competition binding (SPA), mGcg-R membranes. As to conditions: mean ± SEM. In general terms: In a radioligand displacement assay an active substance lowers the binding of a labelled ligand.

Data set [2] has as its target T2, human glucagon receptor (hGcg-R) (Homo sapiens, UniProt P47871). As to the kind of experiment: hGcg-R functional cAMP assay. As to conditions: cAMP; geometric mean ± SEM; read-out: hGcg-R EC50. It is filed as cell-based. More on the design: expressed in transfected cells; host or cells: 293HEK, plasmid phD, hygromycin selection.
Data set [3] is described as follows: Solubility and Stability, 10 mg/mL, one week at 4° C. As to conditions: SEC-HPLC.
The target of data set [4] is human Glucagon-Like Peptide-1 receptor (hGLP-1R) (Homo sapiens, UniProt P43220). Briefly: hGLP-1-R functional cAMP assay. As to conditions: hGlp-1R EC50, cAMP; geometric mean ± SEM. For orientation: cAMP levels reflect the balance of adenylyl cyclase and phosphodiesterase activity.
For data set [5], the target named is T2, human glucagon receptor (hGcg-R). As to the kind of experiment: Radioligand competition binding (SPA), hGcg-R membranes. More on the design: expressed in transfected cells; crude plasma membranes. As to conditions: mean ± SEM.
A further data set addresses T3, hGIP-R (Homo sapiens, UniProt P48546).
T3 construct: expressed in transfected cells; host or cells: CHO-S (Chinese Hamster Ovary, suspension), pcDNA3.1-NeoR, Geneticin selection
T3 sequence (P48546 22-466): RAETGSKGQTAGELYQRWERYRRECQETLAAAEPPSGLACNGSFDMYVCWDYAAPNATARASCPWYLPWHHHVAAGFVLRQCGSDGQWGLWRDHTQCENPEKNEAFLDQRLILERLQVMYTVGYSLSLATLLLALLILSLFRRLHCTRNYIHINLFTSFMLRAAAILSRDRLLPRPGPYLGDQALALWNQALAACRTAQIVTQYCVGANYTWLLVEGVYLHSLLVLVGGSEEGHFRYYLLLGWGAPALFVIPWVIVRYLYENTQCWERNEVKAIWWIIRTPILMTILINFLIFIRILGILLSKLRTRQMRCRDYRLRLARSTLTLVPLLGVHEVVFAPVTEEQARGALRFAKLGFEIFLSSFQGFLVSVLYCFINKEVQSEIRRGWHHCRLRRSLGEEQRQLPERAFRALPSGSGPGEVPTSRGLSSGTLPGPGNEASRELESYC
Briefly: hGIP-R functional cAMP assay. It is filed as cell-based. As to conditions: cAMP; geometric mean ± SEM; read-out: hGIP-R EC50.

Data set [6] concerns the target T4, rat glucagon receptor (rGcg-R) (Rattus norvegicus, UniProt P30082).
T4 construct: expressed in transfected cells; host or cells: 293HEK, transient (48 h), pcDNA3.1-ZeoR; crude plasma membranes
As to the kind of experiment: Radioligand competition binding (SPA), rGcg-R membranes. As to conditions: mean ± SEM.

Another data set is described as follows: Pharmacokinetics in Rats. It is filed as in vivo. As to conditions: rat, plasma; male Sprague Dawley rats, single SC 100 nmol/kg.
The nature of data set [7]: Pharmacokinetics in Cynomolgus Monkeys. The following applies: cynomolgus monkey, in vivo. As for the experimental part:
Plasma concentrations of compounds are determined by LC/MS methods. Each method measured the intact peptide (peptide plus linked time extension). For each assay, the compound and an analog, used as an internal standard (IS), are extracted from 100% rat or monkey plasma (50 μl) using methanol and 0.1% formic acid. Two distinct layers are formed upon centrifugation with the compound and the IS located in the supernatant. A 275 μl aliquot of the supernatant is transferred to a Thermo Protein Precipitation Plate where a vacuum is applied for collection of the flow through into a 96-well plate.
Samples are dried with heated nitrogen gas to remove the supernatant. A volume of 150 μl of 30% acetonitrile and 5% formic acid is added to the wells to reconstitute the samples. Injected samples (20 μl) are loaded onto a Supelco Analytical Discovery BIO Wide Pore C5-3, 5 cm×0.1 mm, 3 μm column. The column effluent is directed into a Thermo Q-Exactive mass spectrometer for detection and quantitation.
Male Cynomolgus monkeys are administered a single intravenous (50 nmole/kg) or subcutaneous (50 nmole/kg) dose of a test compound in Tris Buffer (pH 8.0) at a volume of 0.25 ml/kg. Blood is collected from each animal at 0.5 (IV only), 6, 12, 24, 48, 72, 96, 120, 168, 192, 240, 336, 480, 576, and 672 hours post-dose. Plasma concentrations of compounds are determined by LC/MS methods generally as described above in the Sprague dawley rat studies.
Mean (n=2) pharmacokinetic parameters are provided below in table 4.

Setting [8] is: 10 mg/mL in C6N (10 mM Citrate, 100 mM NaCl, pH 6).
Where [9] appears, read: 10 mg/mL in C7N (10 mM Citrate, 100 mM NaCl, pH 7).
Setting [10] is: 10 mg/mL in H6.5N (10 mM Histidine, 100 mM NaCl, pH 6.5).
The mark [11] stands for this setting: 10 mg/mL in H7.5N (10 mM Histidine, 100 mM NaCl, pH 7.5).
[12] abbreviates: male Cynomolgus monkeys, SC 50 nmol/kg, mean n=2.

Bounds are passed on as bounds.

With `CC(C)C[C@H](NC(=O)[C@H](Cc1c[nH]c2ccccc12)NC(=O)[C@H](CCC(=O)O)NC(=O)[C@@H](NC(=O)[C@H](Cc1ccccc1)NC(=O)[C@H](CCC(=O)O)NC(=O)[C@H](CCCCNC(=O)COCCOCCNC(=O)COCCOCCNC(=O)CC[C@H](NC(=O)CC[C@H](NC(=O)CCCCCCCCCCCCCCCCC(=O)O)C(=O)O)C(=O)O)NC(=O)[C@H](C)NC(=O)[C@H](CCCCN)NC(=O)[C@H](CCCCN)NC(=O)C(C)(C)NC(=O)[C@H](CC(=O)O)NC(=O)[C@H](CC(C)C)NC(=O)[C@H](Cc1ccc(O)cc1)NC(=O)[C@H](CCCCN)NC(=O)[C@H](CO)NC(=O)[C@H](Cc1ccc(O)cc1)NC(=O)[C@H](CC(=O)O)NC(=O)[C@H](CO)NC(=O)[C@@H](NC(=O)[C@H](Cc1ccccc1)NC(=O)[C@@H](NC(=O)CNC(=O)[C@H](CCC(N)=O)NC(=O)C(C)(C)NC(=O)[C@@H](N)Cc1ccc(O)cc1)[C@@H](C)O)[C@@H](C)O)C(C)C)C(=O)N[C@@H](CC(C)C)C(=O)N[C@@H](CCC(=O)O)C(=O)N[C@H](C(=O)NCC(=O)N1CCC[C@H]1C(=O)N[C@@H](CO)C(=O)N[C@@H](CO)C(=O)NCC(N)=O)[C@@H](C)O` [Example 4], the Ki in data set [1] was found to be 0.774 nM; in data set [5], 0.738 nM; in data set [6], 5.86 nM. The results for the EC50 (in data set [2]; in [4]; at hGIP-R) were 0.00278 ± 0.0001 nM, 19 ± 8.2 nM and over 500 nM, respectively. Further, the “Δ % HMW Peak” value is given as 0.64% in data set [3] (setting [8]), 0.26% in data set [3] (setting [9]), 0.35% in data set [3] (setting [10]) and 0.44% in [3] (setting [11]). In addition, the “Δ % Main Peak” value in data set [3] (10 mg/mL in H7.5N) is −0.79%. Besides, the total exposure AUC(0-inf) in “Pharmacokinetics in Rats” turned out to be 5.95 µM·h. Also, the CL/F in the data set “Pharmacokinetics in Rats” was 17 mL/h/kg. The peak level in the data set “Pharmacokinetics in Rats” (Cmax) was 257 nM. The time to peak (Tmax) in “Pharmacokinetics in Rats” was determined as 6 h. In “Pharmacokinetics in Rats”, this molecule had a half-life of 16 h.

With `CC(C)C[C@H](NC(=O)[C@H](Cc1c[nH]c2ccccc12)NC(=O)[C@H](CCC(=O)O)NC(=O)[C@@H](NC(=O)[C@H](Cc1ccccc1)NC(=O)[C@H](CCC(=O)O)NC(=O)[C@H](CCCCNC(=O)COCCOCCNC(=O)COCCOCCNC(=O)CC[C@H](NC(=O)CC[C@H](NC(=O)CCCCCCCCCCCCCCCCCCC(=O)O)C(=O)O)C(=O)O)NC(=O)[C@H](C)NC(=O)[C@H](CCCCN)NC(=O)[C@H](CCCCN)NC(=O)C(C)(C)NC(=O)[C@H](CC(=O)O)NC(=O)[C@H](CC(C)C)NC(=O)[C@H](Cc1ccc(O)cc1)NC(=O)[C@H](CCCCN)NC(=O)[C@H](CO)NC(=O)[C@H](Cc1ccc(O)cc1)NC(=O)[C@H](CC(=O)O)NC(=O)[C@H](CO)NC(=O)[C@@H](NC(=O)[C@H](Cc1ccccc1)NC(=O)[C@@H](NC(=O)CNC(=O)[C@H](CCC(N)=O)NC(=O)C(C)(C)NC(=O)[C@@H](N)Cc1ccc(O)cc1)[C@@H](C)O)[C@@H](C)O)C(C)C)C(=O)N[C@@H](CC(C)C)C(=O)N[C@@H](CCC(=O)O)C(=O)N[C@H](C(=O)NCC(=O)N1CCC[C@H]1C(=O)N[C@@H](CO)C(=O)N[C@@H](CO)C(=O)NCC(=O)N[C@@H](C)C(=O)N1CCC[C@H]1C(=O)N1CCC[C@H]1C(=O)N1CCC[C@H]1C(=O)N[C@@H](CO)C(N)=O)[C@@H](C)O` [Example 2], the Ki worked out at 0.991 ± 0.066 nM in data set [1], 1.07 ± 0.16 nM in data set [5] and 5.59 ± 0.24 nM in [6]. Further, the EC50 is 0.0112 ± 0.0025 nM in data set [2], over 100 nM in data set [4] and over 500 nM at hGIP-R. Besides, the values for the AUC(0-inf) (in data set [7] (setting [12]); in the data set “Pharmacokinetics in Rats”) were 46.3 µM·h and 21.3 µM·h, respectively. Moreover, the Tmax in data set [7] (setting [12]) is 18 h; in “Pharmacokinetics in Rats” it was 24 h. Moreover, the half-life in data set [7] (setting [12]) was 79 h; in “Pharmacokinetics in Rats”, 22 h. Besides, the Cmax in data set [7] (male, sc, 50 nmol/kg, read-out: C0 or Cmax) stood at 377 nM; in “Pharmacokinetics in Rats”, 346 nM. For the same molecule, the CL/F in data set [7] (male, sc, 50 nmol/kg, read-out: CL or CL/F (converted)) was 1.08 mL/h/kg; in the data set “Pharmacokinetics in Rats”, 4.7 mL/h/kg.

Consider `CC(C)C[C@H](NC(=O)[C@H](Cc1c[nH]c2ccccc12)NC(=O)[C@H](C)NC(=O)[C@@H](NC(=O)[C@H](Cc1ccccc1)NC(=O)[C@H](CCC(=O)O)NC(=O)[C@H](CCCCNC(=O)COCCOCCNC(=O)COCCOCCNC(=O)CC[C@H](NC(=O)CCCCCCCCCCCCCCCCC(=O)O)C(=O)O)NC(=O)[C@H](C)NC(=O)[C@H](CCCCN)NC(=O)[C@H](CCCCN)NC(=O)C(C)(C)NC(=O)[C@H](CC(=O)O)NC(=O)[C@H](CC(C)C)NC(=O)[C@H](Cc1ccc(O)cc1)NC(=O)[C@H](CCCCN)NC(=O)[C@H](CO)NC(=O)[C@H](Cc1ccc(O)cc1)NC(=O)[C@H](CC(=O)O)NC(=O)[C@H](CO)NC(=O)[C@@H](NC(=O)[C@H](Cc1ccccc1)NC(=O)[C@@H](NC(=O)CNC(=O)[C@H](CCC(N)=O)NC(=O)C(C)(C)NC(=O)[C@@H](N)Cc1ccc(O)cc1)[C@@H](C)O)[C@@H](C)O)C(C)C)C(=O)N[C@@H](CC(C)C)C(=O)N[C@@H](CCC(=O)O)C(=O)N[C@@H](CCC(=O)O)C(=O)O` [Example 6], for which the Ki in data set [1] was determined as 0.123 nM; in data set [5] it was 0.316 nM; in data set [6], 0.98 nM. Also, the EC50 in [2] was 0.00413 ± 0.00026 nM; in [4] it was over 100 nM; on hGIP-R, over 500 nM. Besides, the “Δ % Main Peak” value in data set [3] (10 mg/mL in C6N) is −0.98%; in data set [3] (10 mg/mL in C7N) it was 0.36%. Besides, the “Δ % HMW Peak” value is recorded as −0.03% in data set [3] (setting [8]), −0.26% in data set [3] (setting [9]), 0.11% in [3] (setting [10]) and 0.14% in [3] (setting [11]).

The Ki is a dissociation constant, usually derived from enzyme kinetics or from competition with a known ligand. The low end stands for tighter binding, the high end for weaker binding. As usually defined, the EC50 is the concentration at which the effect is half-maximal. The AUC(0-inf) is the area under the concentration-time curve extrapolated to infinity. Low readings indicate low exposure, high ones high exposure. In general, Cmax refers to the peak of the concentration-time curve. By Tmax is commonly meant the time from dosing to the highest level. Usually half-life stands for the time needed for the level to fall by half in the phase considered. Read a low half-life as fast loss.
